scFv variants of Ab-14 (light chain) against a SARS-CoV-2 spike peptide

The target is the same throughout: PDVDLGDISGINAS, from the HR2 region of SARS-CoV-2 spike.

Each scFv is VH, the linker GGGGSGGGGSGGGGS, VL, as in the parent Ab-14, and differs from it in the CDRs of the light chain only.
VH: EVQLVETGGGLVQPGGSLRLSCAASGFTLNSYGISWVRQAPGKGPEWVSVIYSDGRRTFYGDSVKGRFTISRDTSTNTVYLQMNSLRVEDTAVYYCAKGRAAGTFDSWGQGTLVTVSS
VL: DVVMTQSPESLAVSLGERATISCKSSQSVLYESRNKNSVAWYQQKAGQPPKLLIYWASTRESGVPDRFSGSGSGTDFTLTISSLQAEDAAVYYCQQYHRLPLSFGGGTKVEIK

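The parent was found by panning a naive human phage display library on the peptide. Variants in AAYL50 differ from the parent at up to three CDR positions; double and triple changes were sampled at random. The scFvs were displayed on barcoded MATa yeast, the peptide on MATalpha yeast. The frequency of each diploid, read from paired DNA barcodes, reflects how well the two displayed proteins bind. A regression on co-assayed BCL2-family reference pairs converts the normalised counts of each replicate to an apparent Kd. Each pool was mated in three replicate cultures.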

Changes read parent residue, position, new residue, counted from the first residue of the VL shown. Scale: log10 of Kd in nM, estimated from mating counts; low values are strong binders. Averages over replicates are reported, and they cover detected replicates only. "nd" means that the variant was in the library but no mating with the target was seen in that replicate; the authors take this as a sign of poor binding, and no number exists. As a blank, each scFv also met three strains without target: over library AAYL50, 18% of these pairings were detected, typically at 4.19 and seldom below 2.99. For each scFv, signals with the empty controls are counted beside the result. In this assay the parent's reference entry averaged 0.65; its copy inside this library read 1.68.

With A40R/Y97C/L102A the result was nd, nd, nd (controls 0 of 9).
With K24H/H98A/L102K the result was 1.44, 1.48, 1.64 (mean 1.52; controls 5 of 9).
With S38L/R60F/Q96R the result was nd, nd, nd (controls 2 of 9).
With T59L/Q95S/S103G the result was 2.64, 2.71, 2.90 (mean 2.75; controls 0 of 9).
With K24R/S58T/L102Q the result was 0.77, 0.88, 0.90 (mean 0.85; controls 4 of 9).
With Q27A/N35H/V39K the result was nd, nd, 4.47 (controls 4 of 9).
With N35W/E61A/Q95C the result was 1.60, 1.68, 1.86 (mean 1.71; controls 1 of 9).
With R34L/T59G/S62N the result was 3.18, 3.71, 5.29 (mean 4.06; controls 1 of 9).
With V29E/S38M/V39P the result was nd, 3.68, nd (controls 1 of 9).
With K24T/Q95S/Y97I the result was nd, nd, nd (controls 1 of 9).
With K24T/Q96Y/S103E the result was nd, nd, nd (controls 0 of 9).
With W56F/Q95P/S103L the result was nd, nd, nd (controls 0 of 9).
With V29C/L30H/S62N the result was 0.67, 1.09, 1.00 (mean 0.92; controls 0 of 9).
With L30P/E32F/S38R the result was 1.58, 1.62, 1.82 (mean 1.67; controls 7 of 9).
With K24H/N37Q/Y97M the result was 1.85, 1.62, 1.81 (mean 1.76; controls 1 of 9).
With K24A/S25V/L30F the result was nd, nd, nd (controls 0 of 9).
With S28Q/Y97L/H98M the result was nd, nd, nd (controls 1 of 9).
With L30R/Y31D/Q95A the result was 0.64, 0.86, 1.08 (mean 0.86; controls 0 of 9).
With S33N/Y97C/H98P the result was nd, nd, 3.72 (controls 0 of 9).
With Q96P/L102A the result was 1.90, 2.11, 2.41 (mean 2.14; controls 7 of 9).
With E32D/V39N the result was nd, nd, nd (controls 2 of 9).
With T59A/Q95D/L102K the result was nd, 4.82, nd (controls 0 of 9).
With E61Y/S62N/L102W the result was 4.16, 5.20, nd (mean 4.68; controls 2 of 9).
With N35F/E61M/R99T the result was nd, nd, nd (controls 0 of 9).
With L30F/S58M the result was 2.50, 2.34, 2.63 (mean 2.49; controls 8 of 9).
With V29W/S33Q/R99W the result was 0.52, 0.81, 0.68 (mean 0.67; controls 3 of 9).
With L30N/S103W the result was 4.47, nd, nd (controls 2 of 9).
With K24E/R34K/S103Q the result was 2.85, 2.00, 3.42 (mean 2.75; controls 1 of 9).
With S26V/S28M/T59D the result was nd, nd, nd (controls 1 of 9).
With S33P/R34E the result was 0.96, 1.10, 1.03 (mean 1.03; controls 2 of 9).
With Y31A/A40P the result was nd, nd, nd (controls 1 of 9).
With T59L/R60W/R99A the result was 2.22, nd, nd (controls 0 of 9).
With N37S/V39G/R60P the result was nd, nd, nd (controls 2 of 9).
With K24Q/Y31S/S33K the result was 1.95, 1.96, 1.99 (mean 1.97; controls 4 of 9).
With V39L/A57P the result was nd, nd, nd (controls 0 of 9).
With N35E/K36A/S103E the result was 0.56, 0.68, 0.85 (mean 0.70; controls 1 of 9).
With R34N/E61P/S103A the result was -0.31, 0.15, -0.19 (mean -0.12; controls 1 of 9).
With S33T/A57Y/P101N the result was nd, nd, nd (controls 0 of 9).

Again, the first 3 entries without any signal:

For A40R/Y97C/L102A, the assay gave nd, nd, nd (controls 0 of 9).
For S38L/R60F/Q96R, the assay gave nd, nd, nd (controls 2 of 9).
For K24T/Q95S/Y97I, the assay gave nd, nd, nd (controls 1 of 9).

Reference: Engelhart et al. 2022, doi:10.1038/s41597-022-01779-4. File: FLAb, binding data.